Experimental data: PubChem BioAssay AID1422 (Emory University Molecular Libraries Screening Center, 2008)
Only a part is listed here, and it is no random draw. Some tests of the compounds listed are not included; inactive here does not mean inactive elsewhere. The source made the active and inactive calls.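 Rule for the calls: active = percent inhibition above 40 after rounding to a whole number; inactive = the rest.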

Protein sequences, listed by entry. Tags and fused reporters are not part of them.
UniProt P43116, whole entry: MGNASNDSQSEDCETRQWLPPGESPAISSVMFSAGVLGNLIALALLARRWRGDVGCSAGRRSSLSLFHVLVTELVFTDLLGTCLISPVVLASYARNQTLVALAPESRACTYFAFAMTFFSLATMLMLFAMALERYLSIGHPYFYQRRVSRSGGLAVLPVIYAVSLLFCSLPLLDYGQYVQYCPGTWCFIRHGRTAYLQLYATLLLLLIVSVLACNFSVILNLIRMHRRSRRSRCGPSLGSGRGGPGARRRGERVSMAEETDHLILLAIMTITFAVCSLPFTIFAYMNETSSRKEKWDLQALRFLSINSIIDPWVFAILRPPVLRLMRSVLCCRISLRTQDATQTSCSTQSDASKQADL

Each compound was assayed against Prostaglandin E2 receptor EP2 subtype (Homo sapiens) (UniProt P43116) (assay: human EP2 receptor antagonists, primary screen, TR-FRET cAMP, C6 glioma cells (AID 1422;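 note: rat C6 glioma host cells with rolipram phosphodiesterase inhibitor present; the protocol text gives 20 µM as final concentration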)). Settings: C6 glioma cells expressing human EP2, cAMP TR-FRET; at 25 µM; stronger effect = higher value; cells stimulated with saturating PGE2.

Structure (SMILES) | inhibition
C=C(C)C#C[C@@](O)(C(=O)OC1CCN(C)CC1)c1ccccc1 | inactive: 6.44%
O=C(OC1CN2CCC1CC2)C(CO)(c1ccccc1)c1ccccc1 (configuration not stated) | inactive: 2.18%
CN(C)c1cccc(C(=O)NCC2(N(C)C)CCCCC2)c1 | inactive: 9.54%
COc1ccc(Br)c(C(=O)NCC2(N3CCCCC3)CCCCC2)c1 | inactive: 6.49%
COc1cccc(C(=O)NCC2(N3CCCCC3)CCCCC2)c1 | inactive: 1.93%
CN(C)C1CCCC1OC(=O)C(O)(c1ccccc1)c1ccccc1 (configuration not stated) | inactive: 8.47%
Cc1ccccc1C(=O)NCC1(N2CCCCC2)CCCCC1 | inactive: 1.31%
CCN1CCCC(OC(=O)C2(O)c3ccccc3C=Cc3ccccc32)C1 (configuration not stated) | inactive: 8.92%
C=CCN1CCN(CCOC(=O)C(O)(c2ccccc2)c2ccccc2)CC1 | inactive: 7.65%
O=C(NCC1(N2CCCCC2)CCCCC1)c1cc([N+](=O)[O-])ccc1Cl | inactive: 6.58%
CCN(CC)CC(C)C(C)OC(=O)C(O)(c1ccccc1)c1ccccc1 (configuration not stated) | inactive: 10.3%
CC(C)N1C(=O)CC2(CCN(CCOC(=O)C(O)(c3ccccc3)c3ccccc3)CC2)C1=O | inactive: 8.3%
